{"source": "ChEMBL document CHEMBL4007427", "about": "“Inhibition of the Aldehyde Dehydrogenase 1/2 Family by Psoralen and Coumarin Derivatives” (J Med Chem, 2017)", "target": "T1, Aldehyde dehydrogenase, mitochondrial (Homo sapiens, UniProt P05091)", "T1 sequence (P05091 whole entry)": "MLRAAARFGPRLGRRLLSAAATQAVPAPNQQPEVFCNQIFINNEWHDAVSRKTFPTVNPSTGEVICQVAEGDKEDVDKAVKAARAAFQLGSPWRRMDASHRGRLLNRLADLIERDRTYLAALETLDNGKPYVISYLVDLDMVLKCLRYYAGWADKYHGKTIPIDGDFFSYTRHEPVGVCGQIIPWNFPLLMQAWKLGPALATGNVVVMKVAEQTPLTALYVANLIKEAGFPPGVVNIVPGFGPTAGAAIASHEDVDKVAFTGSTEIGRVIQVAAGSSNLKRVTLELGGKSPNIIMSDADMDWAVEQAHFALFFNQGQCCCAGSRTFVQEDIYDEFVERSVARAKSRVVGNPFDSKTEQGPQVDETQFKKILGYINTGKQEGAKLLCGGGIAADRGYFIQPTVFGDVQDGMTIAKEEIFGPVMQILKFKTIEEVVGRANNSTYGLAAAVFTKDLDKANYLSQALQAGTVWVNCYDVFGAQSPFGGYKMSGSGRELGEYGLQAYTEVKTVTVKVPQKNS", "data": [{"compound": "Cc1oc2cc3oc(=O)c(C)c(C)c3cc2c1C", "values": [{"measurement": "IC50", "result": 0.19, "unit": "µM"}]}]}
